Measurements published in US20150057180A1, “Methods and Kits for Analyzing Biomarkers in a Signal Transduction Pathway” (BioScale, Inc., priority 2012, published 2015).

What was measured:
Settings in all cases: inhibitor (Afatinib 13 nM, Gefitinib 37 nM or Neratinib 92 nM) 2 hours prior to EGF 100 ng/ml 10 minutes
pp38 = assay: AMMP pp38 assay, A431 cells
pHER3 = assay: AMMP pHER3 assay, A431 cells
pERK1/2 = assay: AMMP pERK1/2 assay, A431 cells
pMEK1 = assay: AMMP pMEK1 assay, A431 cells

COc1cc2ncnc(Nc3ccc(F)c(Cl)c3)c2cc1OCCCN1CCOCC1 [gefitinib, Gefitinib]
EGF stimulated phosphorylation of p38 (pp38): no significant effect | EGF stimulated phosphorylation of HER3 (pHER3): no significant effect | EGF stimulated phosphorylation of HER3 (pHER3; listed as gefinitib): little efficacy | EGF stimulated phosphorylation of ERK1/2 (pERK1/2): no significant effect | EGF stimulated phosphorylation of MEK1 (pMEK1): no significant effect
